# Source: patent publication US20070197610A1, “Benzisoxazoles” (Janssen Pharmaceutica N.V., priority 2004, published 2007)
# Sequences of proteins named here, by UniProt entry; tags and fusion partners are left off.
# UniProt P00371, whole entry: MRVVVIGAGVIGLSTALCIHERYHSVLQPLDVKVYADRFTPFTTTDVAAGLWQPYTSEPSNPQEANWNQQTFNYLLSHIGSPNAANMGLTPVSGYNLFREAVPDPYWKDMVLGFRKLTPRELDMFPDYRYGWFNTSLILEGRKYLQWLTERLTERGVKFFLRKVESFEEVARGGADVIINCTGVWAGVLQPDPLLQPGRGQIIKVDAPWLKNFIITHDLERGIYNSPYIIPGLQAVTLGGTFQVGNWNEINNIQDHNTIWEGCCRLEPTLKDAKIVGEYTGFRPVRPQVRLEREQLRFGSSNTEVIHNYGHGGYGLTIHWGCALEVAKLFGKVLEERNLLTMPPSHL
# Experiments:
# [1] = target: T1, D-amino acid oxidase (DAAO; EC 1.4.3.3) (Sus scrofa, UniProt P00371); test: In vitro inhibition of DAAO using the peroxide method; assay type: biochemical; settings: DAAO 2.6 μg/ml, D-Alanine 7.5 mM, 60 minutes at room temperature, absorbance at 492 nm
# [2] = target: T1, D-amino acid oxidase (DAAO; EC 1.4.3.3); test: In vitro inhibition of DAAO using the keto acid method; assay type: biochemical; settings: DAAO 20 μg/ml, D-Alanine 15 mM, 10 min at room temperature, pH 8.3, absorbance at 450 nm
SMILES,H2O2 method pIC50 [1],keto acid method pIC50 [2]
Cc1onc(-c2c(Cl)cccc2Cl)c1C(=O)Oc1noc2ccccc12,5.3,5.9
CCn1nc(C)cc1C(=O)Oc1noc2cc(Cl)ccc12,7.5,7.0
